Literature values, collected in patent US20220323445A1, “REDUCING IMMUNOGENICITY TO PEGLOTICASE” (Horizon Therapeutics Ireland DAC, priority 2020, published 2022).

Conditions: prophylaxis of gout; cited from earlier work

Structure (SMILES): COc1cc2c(c(OC)c1OC)-c1ccc(OC)c(=O)cc1[C@@H](NC(C)=O)CC2 [colchicine]
- diarrhea: 23%
